Results taken from PMC5045767 (Bioorganic & medicinal chemistry, 2016).

Assays:
[1] = system: murine red blood cells (mRBCs); test: hemolytic assay; details: compared to ebselen / among ebsulfur analogues tested
[2] = MIC broth double-dilution assay with the inoculum size of the time-kill assays; type: cell-based; details: inoculum 1×10^6 CFU/mL

O=c1c2ccccc2sn1-c1ccccc1 [2a, 2-phenyl-1,2-benzisothiazol-3(2H)-one]
hemolytic activity, comparison [1]: less hemolytic when compared to ebselen
MIC values with time-kill inoculum size compared with standard MIC [2]: remained identical
